1 compound from patent publication EP4455142A1, “NOVEL INHIBITOR OF QPCTL AND/OR QC” (Scenic Immunology B.V., priority 2023, dated 2024) can be followed below.

Sequences of proteins named here, by UniProt entry; tags and fusion partners are left off. Residues count along the entry.
UniProt Q9NXS2, 53-382 limits assumed: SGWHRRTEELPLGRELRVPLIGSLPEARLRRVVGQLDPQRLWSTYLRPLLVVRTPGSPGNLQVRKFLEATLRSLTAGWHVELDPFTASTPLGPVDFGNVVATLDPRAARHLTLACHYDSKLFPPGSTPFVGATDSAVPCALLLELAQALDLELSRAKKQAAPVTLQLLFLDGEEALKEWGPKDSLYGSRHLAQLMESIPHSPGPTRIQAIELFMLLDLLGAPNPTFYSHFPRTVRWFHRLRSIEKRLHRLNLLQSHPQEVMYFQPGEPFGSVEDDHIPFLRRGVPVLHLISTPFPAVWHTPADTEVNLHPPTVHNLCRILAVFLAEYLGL
UniProt Q16769, 33-361 limits assumed: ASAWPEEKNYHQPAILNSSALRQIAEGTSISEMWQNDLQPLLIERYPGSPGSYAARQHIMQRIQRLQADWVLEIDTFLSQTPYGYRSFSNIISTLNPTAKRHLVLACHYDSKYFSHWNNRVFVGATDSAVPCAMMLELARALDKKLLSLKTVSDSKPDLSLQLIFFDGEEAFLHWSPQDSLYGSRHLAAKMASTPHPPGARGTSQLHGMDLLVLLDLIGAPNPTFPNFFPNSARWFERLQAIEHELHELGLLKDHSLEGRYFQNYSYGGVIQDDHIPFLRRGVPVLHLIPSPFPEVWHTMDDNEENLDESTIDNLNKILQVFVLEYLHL

For one test, the target named is human isoQC (Homo sapiens, UniProt Q9NXS2). Put plainly: Assay 1 - isoQC potency, fluorescent enzymatic assay (H-Gln-AMC, coupled pGAPase detection). The conditions noted are these: read-out: isoQC potency (nM) Assay 1, recombinant isoQC, 1 hour at 37°C, tested form: free base. From the text:
The Golgi luminal, enzymatically active region of human isoQC (S53-L382; see, e.g., Huang et al., 2011) was obtained by expression in E. coli of an N-terminally GST Enterokinase and C-terminally 6xHis tagged construct in the pET41(+) vector and subsequent purification using Ni-NTA IMAC. Enterokinase digestion ensued, followed by another Ni-NTA IMAC purification, Superdex75 based size exclusion and finally a spin concentration using a 10 kDa molecular weight cutoff. The final protein is formulated in 50 mM Tris-HCl, 150 mM NaCl, 50% Glycerol, pH 7.8.
Pyroglutamylation was measured by conversion of glutamine-4-amino-7-methylcoumarine (H-Gln-AMC, Bachem) to pyroglutamyl-AMC, which is subsequently a specific substrate for pyroglutamylaminopeptidase (pGAPase, Qiagen), releasing free AMC which can be fluorescently detected. […]
To detect the amount of pyroglutamyl-AMC formed, a 0.125 U/mL pGAPase enzyme diluted in 50 mM Tris-HCl pH 8.0 containing 10 mM dithiothreitol (DTT) solution was prepared. […] Plates were then incubated for 25 minutes at room temperature before fluorescence readings were taken on an Envision2 plate reader with excitation set at 380 nm and emission at 450 nm. […]
IC50 values are calculated using non-linear regression analysis with GraphPad Prism software.

In another test the target is recombinant QC enzyme (Homo sapiens, UniProt Q16769). The test is described as follows: Assay 2 - QC potency, fluorescent enzymatic assay (H-Gln-AMC, coupled pGAPase detection). The conditions noted are these: read-out: QC potency (nM) Assay 2, 1 hour at 37°C, tested form: free base.
A further test concerns pyroglutamylated CD47. The test is described as follows: Assay 3 - cell-based potency assay (pyroglutamylation in live cells, total CD47/pE-CD47 dual staining, FACS). The settings on record: read-out: Cell potency (nM) Assay 3; IC50 of CC2C6 signal; KBM7 cells, 72 hours incubation; tested form: free base. As to the method: Cells were spun for 4 minutes at 1500 rpm and washed once with PBS / 0.5% BSA. Cells were spun down again and the supernatant was removed and incubated in 100 uL antibody staining solution (PBS / 0.5% BSA / 0.1 µg/mL DAPI (4',6-diamidino-2-phenylindole, ThermoFisher Scientific) and a mixture of 1:500 FITC-conjugated anti-human CD47 clone 2D3, which recognizes total CD47 irrespective of its pyroglutamylation state, and 1:500 Alexa647-conjugated anti-human CD47 clone CC2C6, which specifically detects pyroglutamylated CD47) for 2 hours at 4°C. Next, the cells were spun down and washed twice with 2 x 150 µL PBS / 0.5% BSA to remove unbound antibody. […]
In order to test compounds for their effect on pyroglutamylation in live cells, 25000 KBM7 cells per well were seeded in a 96-well U-bottom plate in 150 µl IMDM / 10% FCS / 1% Pen / Strep medium and a 10-point 2-fold dilution range of test compounds. After 72 hours incubation at 37°C, 5% COz, cells were stained for total CD47 and pE-CD47 and analysed on a BD Celesta using FACS Diva software (BD Biosciences). Cells gated for DAPI negativity were recorded and the median fluorescence intensity (MFI) of each sample was transformed to linearly scale between the MFI's of wildtype and CD47 knockout cells (in case of the 2D3 antibody) and the wildtype and QPCTL knockout cells (in case of the CC2C6 antibody). […]

Structures are written as SMILES.

As for `O=C1OC[C@H](c2ccc(-c3cnc(C(F)(F)F)s3)cc2F)N1c1ccc2[nH]cnc2c1`, the IC50 on human isoQC came to 3.1 nM; at recombinant QC enzyme, 22.5 nM; in the test on pyroglutamylated CD47, 159 nM.
